From US9988429B2, “Glucagon analogues” (Zealand Pharma A/S, priority 2013, dated 2018)

Sequences of proteins named here, by UniProt entry; tags and fusion partners are left off. Residues count along the entry.
UniProt P47871, 26-477: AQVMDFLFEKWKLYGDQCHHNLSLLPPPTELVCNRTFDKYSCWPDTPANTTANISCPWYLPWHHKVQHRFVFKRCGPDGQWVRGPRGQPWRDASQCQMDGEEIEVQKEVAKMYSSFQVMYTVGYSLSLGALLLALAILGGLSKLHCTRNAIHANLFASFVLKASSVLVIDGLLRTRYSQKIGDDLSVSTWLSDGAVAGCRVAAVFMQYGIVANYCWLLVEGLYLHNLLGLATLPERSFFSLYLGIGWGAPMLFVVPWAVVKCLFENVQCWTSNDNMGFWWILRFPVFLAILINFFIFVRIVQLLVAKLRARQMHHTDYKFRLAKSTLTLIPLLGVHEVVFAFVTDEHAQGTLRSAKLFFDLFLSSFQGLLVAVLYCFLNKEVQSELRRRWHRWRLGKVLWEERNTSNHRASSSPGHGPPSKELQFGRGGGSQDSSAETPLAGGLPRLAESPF
UniProt P30082, 27-485: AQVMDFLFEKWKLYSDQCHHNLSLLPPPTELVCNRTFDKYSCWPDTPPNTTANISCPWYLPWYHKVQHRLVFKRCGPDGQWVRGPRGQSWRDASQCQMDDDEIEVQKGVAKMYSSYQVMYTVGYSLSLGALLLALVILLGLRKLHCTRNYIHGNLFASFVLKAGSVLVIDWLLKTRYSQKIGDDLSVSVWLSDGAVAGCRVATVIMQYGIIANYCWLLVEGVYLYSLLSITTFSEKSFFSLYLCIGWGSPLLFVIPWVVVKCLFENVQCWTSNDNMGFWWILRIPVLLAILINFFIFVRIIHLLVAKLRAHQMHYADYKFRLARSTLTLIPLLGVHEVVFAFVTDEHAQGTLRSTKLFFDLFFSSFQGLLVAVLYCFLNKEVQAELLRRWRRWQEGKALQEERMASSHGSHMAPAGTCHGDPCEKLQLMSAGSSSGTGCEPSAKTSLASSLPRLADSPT

Experiments:
[1] = target: human glucagon receptor (Glucagon-R) (human, UniProt P47871 26-477); experiment: cell-based or functional assay
[2] = target: endogenous glucagon receptor of primary rat hepatocytes (rat, UniProt P30082 27-485); experiment: cell-based or functional assay

EC50 hGCGR CHO-K1 [nM] (cAMP, AlphaScreen) [1]: 0.23 nM
EC50 [nM] (inhibition of glycogen synthesis rate in primary rat hepatocytes) [2]: 1.3 nM
Binder: HAQGTFTSDYSKYLDSKAAHDFVEWLLSA (Lys17 side chain conjugated to hexadecanoyl-isoGlu; C-terminal amide (NH2)) [Compound 1: H-HAQGTFTSDYSKYLDS-K(Hexadecanoyl-isoGlu)-AAHDFVEWLLSA-NH2]
